Consider one molecule from patent publication US20210403547A1.

This test has as its target membrane-bound ligands (TGF-alpha and Epiregulin) on HT-29 cells. The experiment in a line: cell-based or functional assay.

B1: Antibody I (antibody, human IgG4 S228P, kappa, F234A L235A)
heavy: QVQLVQSGAEVKKPGSSVKVSCKASGYTFTDAYINWVRQAPGQGLEWMGWIWPGPVITYYNPKFKGRVTITADKSTSTAYMELSSLRSEDTAVYYCARREVLSPFAYWGQGTTVTVSSASTKGPSVFPLAPCSRSTSESTAALGCLVKDYFPEPVTVSWNSGALTSGVHTFPAVLQSSGLYSLSSVVTVPSSSLGTKTYTCNVDHKPSNTKVDKRVESKYGPPCPPCPAPEAAGGPSVFLFPPKPKDTLMISRTPEVTCVVVDVSQEDPEVQFNWYVDGVEVHNAKTKPREEQFNSTYRVVSVLTVLHQDWLNGKEYKCKVSNKGLPSSIEKTISKAKGQPREPQVYTLPPSQEEMTKNQVSLTCLVKGFYPSDIAVEWESNGQPENNYKTTPPVLDSDGSFFLYSRLTVDKSRWQEGNVFSCSVMHEALHNHYTQKSLSLSLG
light: DIVMTQSPDSLAVSLGERATINCRSSQSIVHSTGNTYLEWYQQKPGQPPKLLIYKVSNRFSGVPDRFSGSGSGTDFTLTISSLQAEDVAVYYCFHGTHVPYTFGGGTKVEIKRTVAAPSVFIFPPSDEQLKSGTASVVCLLNNFYPREAKVQWKVDNALQSGNSQESVTEQDSKDSTYSLSSTLTLSKADYEKHKVYACEVTHQGLSSPVTKSFNRGEC
B1 yielded a Mean Ringspot Total Intensity of Fluorescence (internalization into HT-29 cells), 40 ug/mL, 0 min post addition of 89; a Mean Ringspot Total Intensity of Fluorescence (internalization into HT-29 cells), 40 ug/mL, 5 min post addition of 261; a Mean Ringspot Total Intensity of Fluorescence (internalization into HT-29 cells), 40 ug/mL, 15 min post addition of 717; a Mean Ringspot Total Intensity of Fluorescence (internalization into HT-29 cells), 40 ug/mL, 30 min post addition of 1490. The Mean Ringspot Total Intensity of Fluorescence (internalization into HT-29 cells), 40 ug/mL, 60 min post addition came to 4130; the Mean Ringspot Total Intensity of Fluorescence (internalization into HT-29 cells), 40 ug/mL, 120 min post addition worked out at 4450; the Mean Ringspot Total Intensity of Fluorescence (internalization into HT-29 cells), dose 0.34 ug/ml, 2 h at 37 C was 2430; the Mean Ringspot Total Intensity of Fluorescence (internalization into HT-29 cells), dose 0.69 ug/ml, 2 h at 37 C is 3440. The Mean Ringspot Total Intensity of Fluorescence (internalization into HT-29 cells), dose 1.38 ug/ml, 2 h at 37 C turned out to be 4350; the Mean Ringspot Total Intensity of Fluorescence (internalization into HT-29 cells), dose 2.75 ug/ml, 2 h at 37 C came to 6500; the Mean Ringspot Total Intensity of Fluorescence (internalization into HT-29 cells), dose 5.5 ug/ml, 2 h at 37 C was determined as 8470; the Mean Ringspot Total Intensity of Fluorescence (internalization into HT-29 cells), dose 11 ug/ml, 2 h at 37 C was 11500. Also, the Mean Ringspot Total Intensity of Fluorescence (internalization into HT-29 cells), dose 22 ug/ml, 2 h at 37 C stood at 15100 and the Mean Ringspot Total Intensity of Fluorescence (internalization into HT-29 cells), dose 44 ug/ml, 2 h at 37 C stood at 17500.
